Values quoted from earlier work in PMC2570394 (Diabetes, 2008).

Test system: hepatic CB1 receptors
Conditions: mice, 10 mg/kg, 3 weeks; cited from earlier work

In the case of `Cc1c(C(=O)NN2CCCCC2)nn(-c2ccc(Cl)cc2Cl)c1-c1ccc(Cl)cc1` [SR141716, Rimonabant], the alcohol-induced steatosis is listed as “attenuated”.
